The values that follow are results of earlier work, collected in publication PMC4518026 (Journal of controlled release : official journal of the …, 2014).

The conditions of data set [1]: mice; ref [19]; cited from earlier work.
Another data set relates to hindlimb ischemia. The note with it: mouse, in vivo; cited from earlier work.

For the substance “vascular endothelial growth factor [VEGF]”, the “in vivo circulating half-life” value in data set [1] is “three”. Further, in the data set on hindlimb ischemia, the “vascular effect of bolus VEGF, in words” value is “leaky and aberrant vessels and off-target effects”.
